Patent publication US20110286981A1 (ZEALAND PHARMA A S, published 2011)

Assays:
[1] = molecular target: human glucagon-like peptide 1 receptor (human) (UniProt P43220); assay: cell-based or functional assay
[2] = molecular target: human glucagon receptor (human) (UniProt P47871); assay: cell-based or functional assay

GLP-1R EC50 (cAMP formation in HEK293 cells expressing human GLP-1-R) [1]: 0.02 nmol
GLUR EC50 (cAMP formation in HEK293 cells expressing human Glucagon-R) [2]: > 1000 nmol
Substance: Exendin-4 (from UniProt P26349) (peptide)
